Measured values from ChEMBL document CHEMBL4431386, “Potent selective monoamine oxidase B inhibition by maackiain, a pterocarpan from the roots of Sophora flavescens” (Bioorg Med Chem Lett, 2016).

Sequences of proteins named here, by UniProt entry; tags and fusion partners are left off.
UniProt P21397, whole entry: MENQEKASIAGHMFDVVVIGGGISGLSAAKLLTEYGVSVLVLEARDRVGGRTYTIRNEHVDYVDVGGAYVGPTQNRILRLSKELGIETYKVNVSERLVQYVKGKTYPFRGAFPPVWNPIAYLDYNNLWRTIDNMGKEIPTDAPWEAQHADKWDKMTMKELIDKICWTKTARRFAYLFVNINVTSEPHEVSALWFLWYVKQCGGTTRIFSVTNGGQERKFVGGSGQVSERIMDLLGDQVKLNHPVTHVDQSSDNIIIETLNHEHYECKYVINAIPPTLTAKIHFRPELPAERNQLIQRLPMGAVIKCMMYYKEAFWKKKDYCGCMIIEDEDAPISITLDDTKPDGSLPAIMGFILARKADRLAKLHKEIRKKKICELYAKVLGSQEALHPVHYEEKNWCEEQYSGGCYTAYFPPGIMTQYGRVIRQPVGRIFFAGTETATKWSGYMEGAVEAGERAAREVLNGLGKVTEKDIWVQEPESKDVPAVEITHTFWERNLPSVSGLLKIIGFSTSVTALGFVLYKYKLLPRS

Molecular target: Amine oxidase [flavin-containing] A (Homo sapiens, UniProt P21397)
Assay: Inhibition of recombinant human MAO-A expressed in baculovirus infected BTI insect cells preincubated for 10 mins followed by addition of kynuramine as substrate

SMILES: C#CCN(C)Cc1ccccc1 [PARGYLINE]
- IC50: > 2000 nM
